Patent US6096763A, “α1a adrenergic receptor antagonists” (dated 2000)

Protein sequences, listed by entry. Tags and fused reporters are not part of them.
UniProt P33535, whole entry: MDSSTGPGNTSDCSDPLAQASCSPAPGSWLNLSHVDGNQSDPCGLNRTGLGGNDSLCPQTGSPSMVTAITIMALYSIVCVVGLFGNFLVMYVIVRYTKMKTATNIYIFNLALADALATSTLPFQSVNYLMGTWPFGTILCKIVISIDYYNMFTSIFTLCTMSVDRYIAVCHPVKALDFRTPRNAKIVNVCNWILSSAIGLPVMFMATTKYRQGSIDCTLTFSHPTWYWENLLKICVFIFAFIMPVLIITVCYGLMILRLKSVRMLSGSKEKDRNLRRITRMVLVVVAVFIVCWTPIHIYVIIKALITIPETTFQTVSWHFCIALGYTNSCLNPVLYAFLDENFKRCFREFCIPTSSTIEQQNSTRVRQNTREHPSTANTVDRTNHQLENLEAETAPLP
UniProt P33533, whole entry: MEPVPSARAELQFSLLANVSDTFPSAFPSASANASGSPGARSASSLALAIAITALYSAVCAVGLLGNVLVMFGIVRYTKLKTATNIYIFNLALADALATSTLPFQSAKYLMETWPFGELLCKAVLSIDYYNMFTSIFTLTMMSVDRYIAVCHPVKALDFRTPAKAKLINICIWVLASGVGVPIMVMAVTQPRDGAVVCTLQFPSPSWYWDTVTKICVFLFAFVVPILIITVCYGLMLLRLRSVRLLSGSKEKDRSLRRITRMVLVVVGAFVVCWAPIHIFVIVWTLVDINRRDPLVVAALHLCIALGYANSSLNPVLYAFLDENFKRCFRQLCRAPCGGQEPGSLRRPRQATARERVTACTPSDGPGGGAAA
UniProt P41144, whole entry: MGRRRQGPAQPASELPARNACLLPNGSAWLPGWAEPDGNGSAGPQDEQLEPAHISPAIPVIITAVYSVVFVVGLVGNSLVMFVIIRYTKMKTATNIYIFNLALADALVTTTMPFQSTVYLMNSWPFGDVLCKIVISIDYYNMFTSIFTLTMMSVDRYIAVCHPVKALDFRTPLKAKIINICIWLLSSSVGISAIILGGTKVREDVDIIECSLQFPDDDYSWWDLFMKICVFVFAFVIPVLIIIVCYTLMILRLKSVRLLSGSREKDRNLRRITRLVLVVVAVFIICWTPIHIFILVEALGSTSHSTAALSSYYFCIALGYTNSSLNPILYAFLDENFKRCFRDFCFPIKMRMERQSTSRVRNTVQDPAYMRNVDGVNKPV

How the values were obtained:
mu opioid receptor = mu opioid receptor (Rattus norvegicus, UniProt P33535); test: Opioid mu receptor binding (3H-DAMGO, rat brain membranes); conditions: read-out: IC50 3H-DAMGO (mu), 3H-DAMGO 1 nM, 25° C., 1 hour
delta opioid receptor = delta opioid receptor (Rattus norvegicus, UniProt P33533); test: Opioid delta receptor binding (3H-DPDPE, rat brain membranes); conditions: read-out: IC50 3H-DPDPE (delta), 3H-DPDPE 3 nM, 25° C.
kappa opioid receptor = kappa opioid receptor (Cavia porcellus, UniProt P41144); test: Opioid kappa receptor binding (3H-U69593, guinea pig brain membranes); conditions: read-out: IC50 3H-U69593 (kappa), 3H-U69593 5 nM, 25° C., 1 hour
[1] = test system: guinea pig ileum (opiate receptors); test: Opioid Activity in Electrically Induced Contraction of Guinea Pig Ileum; conditions: read-out: Guinea pig ileum EC50; field stimulation 0.15 Hz, 1.5 msec; cumulative dosing

`CC(CCCN1C(=O)c2ccccc2S1(=O)=O)N1CCC(n2c(=O)[nH]c3ccccc32)CC1` (racemic) showed an IC50 (mu opioid receptor) of 33 nM, an IC50 (delta opioid receptor) of 5700 nM and an IC50 (kappa opioid receptor) of 1700 nM. The EC50 [1] was 110 nM.
